The source of these data is ChEMBL document CHEMBL4390672, “Development of Covalent Ligands for G Protein-Coupled Receptors: A Case for the Human Adenosine A3 Receptor” (J Med Chem, 2019).

By UniProt entry, the sequences of proteins in these tests, tags left out.
UniProt P0DMS8, whole entry: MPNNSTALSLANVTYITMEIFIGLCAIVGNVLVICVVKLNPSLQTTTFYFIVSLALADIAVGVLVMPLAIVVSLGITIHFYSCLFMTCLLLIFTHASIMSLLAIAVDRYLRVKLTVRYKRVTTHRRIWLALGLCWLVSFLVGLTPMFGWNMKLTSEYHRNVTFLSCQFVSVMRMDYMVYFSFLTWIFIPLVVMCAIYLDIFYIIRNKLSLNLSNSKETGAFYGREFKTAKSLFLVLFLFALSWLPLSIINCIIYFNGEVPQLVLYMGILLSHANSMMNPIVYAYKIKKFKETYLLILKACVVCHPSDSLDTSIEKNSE

What all share (assay type): cell-based
Assay [1] concerns the target T1, Adenosine receptor A3 (Homo sapiens, UniProt P0DMS8). The assay is described as follows: Irreversible displacement of [3H]PSB11 from human A3 adenosine receptor expressed in CHO cell membranes assessed as residence time measured up to 240 mins by scintillation spectrometry. (In general: Loss of bound radioactivity is the signal in a displacement assay; it reports binding, not function.)

Assay [2] concerns the target T1, Adenosine receptor A3. Briefly: Irreversible displacement of [3H]PSB11 from human A3 adenosine receptor expressed in CHO cell membranes assessed as association rate constant measured up to 240 mins by scintillation spectrometry.
The species named for another assay is Homo sapiens. Briefly: Selectivity ratio of IC50 for displacement of [3H]PSB11 from human A3 adenosine receptor transiently expressed in CHOK1 cell membranes to IC50 for displacement of [3H]PSB11 from human A3 adenosine receptor Y265F (7.36) mutant transiently expressed in CHOK1 cell membranes.
The target in assay [3] is T1, Adenosine receptor A3. Briefly: Irreversible displacement of [3H]PSB11 from human A3 adenosine receptor expressed in CHO cell membranes assessed as dissociation rate constant measured up to 240 mins by scintillation spectrometry.

Turning to `CCCn1c(=O)c2c(nc3cc(OC)ccn32)n(CCCNC(=O)c2ccc(S(=O)(=O)F)cc2)c1=O`, on Adenosine receptor A3 [1], the Time came to 7.63 ×10¹¹ min. For the same compound, the K at Adenosine receptor A3 [2] was determined as 3.48 ×10⁵ /M/min; at Adenosine receptor A3 [3], 1.38 ×10⁻¹² /min. The Ratio IC50 in the assay filed under Homo sapiens is 43.
